For assay [1], the system named is YST-1. The assay can be described thus: drug sensitivity score (DSS, CellTiter-Glo viability, 72 h) (DSS (dimensionless)); higher = more sensitive; extreme values may be limits of the assay. Summed up: (§1)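 Viability was scored by CellTiter-Glo ATP luminescence, scaled from vehicle to positive-control wells, with duplicates averaged where present. The cells, MPNST lines and primary human Schwann cells at 750–1000 per well, sat 72 h at 37 °C, 5% CO2, in 384-well plates preprinted with each compound at five concentrations in 10-fold steps. Four-parameter logistic fits were run on the data. These fits give drug sensitivity score and relative IC50 censored at the top concentration, and percent inhibition is reported at the top concentration.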
For orientation: In ATP-based viability assays light output follows the ATP content of the culture.

Assay [2] deals with HS-Sch-2. The assay is described as above. Put shortly: as §1
The subject of assay [3] is HS-PSS. The assay is described as above. Put shortly: as §1
Assay [4] relates to YST-1. Briefly: % inhibition of CellTiter-Glo viability at highest tested concentration (72 h), relative to DMSO and benzethonium chloride controls; higher = more inhibition. Summed up: as §1
The test system of assay [5] is HS-Sch-2. The description is as above. Summed up: as §1
In assay [6] the test system is HS-PSS. Described as above. Summed up: as §1
The test system of assay [7] is HS-PSS. The assay can be described thus: drug sensitivity score (DSS, CellTox-Green cytotoxicity, 72 h) (DSS (dimensionless)); higher = more cytotoxic; extreme values may be limits of the assay. Summed up: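 MPNST cell lines and primary human Schwann cells were incubated 72 h at 37 °C in 384-well plates holding five 10-fold compound dilutions. CellTox-Green was added before seeding at a final 1:1000 dilution and reported fluorescence from DNA released by disrupted cells. Signals were scaled to vehicle and positive-control wells, and cultures failing plate quality control were dropped. Drug sensitivity score and relative IC50 come from four-parameter logistic fits, with IC50 censored at the top concentration.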

From the supplement of paper PMC5579334 come the findings set out here.

The % inhibition is the relative decrease from the control value, in per cent. With `NCc1ccc(OCCCc2sc(-c3ccc4c(c3)/C(=N/Nc3nc5ccccc5s3)CCC4)nc2C(=O)O)cc1` [WEHI-539] (max concentration tested 2500 nM), the drug sensitivity score in the assay on YST-1 [1] is 1.43; in the assay with HS-Sch-2 [2], 0.37; in the assay with HS-PSS [3], 0.33; in the assay with HS-PSS [7] it was 0.07. The “% inhibition” value in the assay with YST-1 [4] was found to be 19.2%; in the assay on HS-Sch-2 [5] it was 8.73%; with HS-PSS [6] it was 16.4%.
